What was measured:
[1] = molecular target: T1, vitronectin receptor (Vn-R) (Homo sapiens, UniProt P05106+P06756); experiment: VnR binding, ELISA or liposome attachment assay (Table I)
T1 construct: from tissue; host or cells: human placenta
Protocol: Receptor and ligand purifications were performed according to the methods in this Example or those in Examaple XI.C. Receptors were purified according to the procedures of Pytela et al. (Methods Enzymol. 144:475 (1987)), incorporated herein by reference. […] After extraction, the suspension was filtered over a Sepharose 6B column and then applied to a GRGDSPK column. Except where stated, all procedures were carried out at 4° C. The peptide column was washed with three volumes of Tris-buffered saline (TBS) containing 1 mM Ca^2+ and Ca^2+ and 25 mM OG and then with TBS containing 1 mM 25 mM octyl thioglucoside (OTG) at room temperature. […] Finally, Ca^2+ and Mg^+2 were added to eluted fractions to achieve final concentrations of 1 mM for both ions.
Maxisorp microtiter plates were coated with 2 μg/ml human vitronectin dissolved in PBS ([…]) and stored overnight at 4° C. The plates were washed two times with PBS-0.05% Tween-20 (wash buffer) and blocked by incubating with about 150 μl/well of assay buffer (1%, BSA (RIA grade or better) in 50 mM Tris-HCl, 100 mM NaCl, 1 mM MgCl2, CaCl2, MnCl2 pH 7.4) for 60 minutes. Dilutions of standards were prepared and putative inhibitors (Table 2) were dissolved in assay buffer. The blocked plates were emptied and 20 μl/well of inhibitor or standard solution was added to each well. Twenty-five μl of a 30 μg/ml solution of purified αV β3 in assay buffer was pipetted into the coated plate. The final concentration of receptor in the assay well was about 15 μg/ml. The plate was incubated on a shaker for 60 minutes. Meanwhile, for each microtite plate, 6 ml buffer solution containing 1.5 μg/ml of mouse monoclonal antibody specific for β3 is prepared. To this solution was added the secondary antibody which is anti-mouse-Fc-HRP antibody conjugate. For example, for one plate, 6 ml of a 1.5 μg/ml mouse Mab solution was prepared to which was added 1 μl of anti-mouse-Fc-HRP antibody stock, (this represents a 1:6000 dilution of the antibody--HRP conjugate). This mixture was allowed to incubate during the receptor-inhibitor incubation. The assay plates were washed 4 times with PBS-Tween and 50 μl/well of the antibody mixture was then pipetted into the plate for a 60 minute incubation. The plate was washed 4 times and the color reaction was developed with 50 μl/well of 0.67 mg/ml o-phenyldiamine in PBS containing 0.012% H2 O2. Alternatively, 16 mM citric acid, 50 mM Na2 PO4 at pH 5.0 can be used as a substrate buffer. The reaction is stopped with 50 μl/well 1 M H2 SO4. The plates were read at 492-405 nm and the data analyzed by four-parameters fit.
This assay was performed with minor modifications, according to the method of Pytela et al., Methods Enzymol. 144:475 (1987), incorporated herein by reference. Briefly, 1:4 mixture of labelled and unlabelled phosphatidylcholine (PC) liposomes was dissolved under nitrogen and diluted with an equal volume of purified receptor (purified as described in Example II) to achieve a fixed predetermined receptor-liposome concentration ratio. This mixture was then dialyzed overnight at 4° C. in phosphate buffered saline (PBS) containing 1 mM Ca^2+. An aliquot of the dialyzed sample was counted to assess radioactive content; the receptor-liposome mixture was then diluted to obtain a set radioactivity per unit volume.
Microtiter plates were coated with 10 μg of vitronectin. Non-specific sites were blocked for 2 hours at 37° C. in PBS containing 5 mg/ml BSA and 1 mM each of CaCl2 and MgCl2. The plates were then rinsed twice with PBS containing 1 mM Ca^+2 and Mg^+2, and 100 μl of the liposome-receptor mixture was added to each well. If necessary, peptides were added before this step in a 1-10% dilution. The plates were then incubated at 4° C. for 24 hours. The following day, the liquid in each well was aspirated and the plates were washed twice with PBS containing 1 mM Ca^+2 and Mg^+2. […]

Chains of the proteins cited; added tags and fusions are not shown. Residues count along the entry.
UniProt P05106, 27-788: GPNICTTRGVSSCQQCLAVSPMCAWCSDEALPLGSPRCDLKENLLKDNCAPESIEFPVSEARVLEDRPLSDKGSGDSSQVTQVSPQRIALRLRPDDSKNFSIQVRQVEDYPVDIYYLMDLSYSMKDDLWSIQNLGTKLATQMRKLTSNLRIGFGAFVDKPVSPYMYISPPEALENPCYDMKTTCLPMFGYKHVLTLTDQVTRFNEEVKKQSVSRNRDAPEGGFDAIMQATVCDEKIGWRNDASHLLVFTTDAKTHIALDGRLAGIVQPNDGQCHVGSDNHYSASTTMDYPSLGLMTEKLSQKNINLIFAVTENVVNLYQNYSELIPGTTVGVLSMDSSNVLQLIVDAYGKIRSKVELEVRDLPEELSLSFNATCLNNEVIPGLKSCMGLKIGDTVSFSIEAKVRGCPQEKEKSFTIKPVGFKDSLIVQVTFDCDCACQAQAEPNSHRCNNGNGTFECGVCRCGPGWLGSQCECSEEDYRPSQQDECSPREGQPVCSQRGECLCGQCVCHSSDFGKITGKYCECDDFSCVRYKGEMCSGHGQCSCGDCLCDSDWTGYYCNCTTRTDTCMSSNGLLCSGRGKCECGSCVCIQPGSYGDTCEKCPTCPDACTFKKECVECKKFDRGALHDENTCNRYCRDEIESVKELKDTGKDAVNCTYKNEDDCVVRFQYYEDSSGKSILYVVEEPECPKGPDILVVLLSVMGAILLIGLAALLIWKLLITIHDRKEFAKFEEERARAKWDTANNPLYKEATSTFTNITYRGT
UniProt P06756, 891-1048 partner limits assumed: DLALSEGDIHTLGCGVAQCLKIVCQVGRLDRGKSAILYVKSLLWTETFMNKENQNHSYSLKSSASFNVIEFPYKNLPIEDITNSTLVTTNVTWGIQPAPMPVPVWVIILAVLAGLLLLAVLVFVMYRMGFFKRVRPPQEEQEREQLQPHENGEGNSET
UniProt P06756, 31-889 limits assumed: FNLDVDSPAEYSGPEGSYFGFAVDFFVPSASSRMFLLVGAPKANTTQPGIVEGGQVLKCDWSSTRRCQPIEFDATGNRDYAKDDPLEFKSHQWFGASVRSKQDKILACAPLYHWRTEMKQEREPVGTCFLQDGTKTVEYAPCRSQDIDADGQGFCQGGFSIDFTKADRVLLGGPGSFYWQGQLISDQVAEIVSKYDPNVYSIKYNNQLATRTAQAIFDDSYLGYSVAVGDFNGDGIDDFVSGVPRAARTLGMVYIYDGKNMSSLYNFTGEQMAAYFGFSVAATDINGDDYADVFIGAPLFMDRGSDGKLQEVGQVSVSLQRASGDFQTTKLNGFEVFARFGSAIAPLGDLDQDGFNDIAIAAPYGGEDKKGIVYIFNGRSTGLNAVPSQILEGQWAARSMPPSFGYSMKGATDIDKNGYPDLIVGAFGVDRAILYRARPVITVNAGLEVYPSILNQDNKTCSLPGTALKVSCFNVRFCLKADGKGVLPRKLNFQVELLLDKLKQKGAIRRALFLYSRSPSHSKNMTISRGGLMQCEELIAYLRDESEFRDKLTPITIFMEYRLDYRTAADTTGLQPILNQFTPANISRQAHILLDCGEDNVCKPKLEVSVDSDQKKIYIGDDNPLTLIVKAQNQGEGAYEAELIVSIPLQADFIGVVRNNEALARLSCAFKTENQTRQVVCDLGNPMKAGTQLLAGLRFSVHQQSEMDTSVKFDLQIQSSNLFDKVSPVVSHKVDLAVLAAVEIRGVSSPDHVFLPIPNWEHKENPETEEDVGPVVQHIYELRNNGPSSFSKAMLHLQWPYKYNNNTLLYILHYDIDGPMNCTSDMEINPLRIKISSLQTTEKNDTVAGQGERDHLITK

[2] = Rabbit peripheral blood flow (PBF), laser dopler flow probe; type: in vivo; conditions: time 0 min, bolus dose printed with drug
Protocol: In an alternative series of experiments, (Table 2) PBF was measured quantitatively with a laser dopler flow probe (Perimed). The probe was positioned securely over the vascular bed of one ear and flow monitored continuously. Each inhibitor was infused and CBT measured in the opposing ear. No arterial catheter was placed for blood sampling, consequently XPA was measured in these animals.
As positive control, epinephrine was infused intravenously (1 mg over 2 minutes) at 60 minutes. The resulting vasoconstriction reduced flow to near 0 flow units within 5 minutes.

Row | Substance | IC50 [1] | PBF [2]
1 | G(Pen)GRGDRPCA | 470 nM | 
2 | G(Pen)GRGDSPCA | 150 nM | 
3 | G(Pen)GRGDTPCA | 33 nM | 
4 | G(Pen)IARGDWNCA | 41 nM | 
5 | G(Pen)LRGDSPCA | 260 nM | 
6 | G(Pen)LRGDSRCA | 1350 nM | 
7 | G(Pen)LRGDTPCA | 250 nM | 
8 | R(Pen)GHRGDWRCR [4Q] | 6900 nM | 282 units
9 | R(Pmc)GHRGD(O-n-butyl-Tyr)RCR | 2200 nM | 
10 | R(Pmc)GHRGDYRCR | 7850 nM | 
11 | R(Pmc)NHRGD(O-Me-Tyr)-RCR | 6900 nM | 

From patent US6017877A, “Method and composition for treating thrombosis” (priority 1994, dated 2000)
